Protein sequences, listed by entry. Tags and fused reporters are not part of them. Lines headed by an entry give the natural chain unless they say otherwise; changes in a name come on top.
UniProt P49841: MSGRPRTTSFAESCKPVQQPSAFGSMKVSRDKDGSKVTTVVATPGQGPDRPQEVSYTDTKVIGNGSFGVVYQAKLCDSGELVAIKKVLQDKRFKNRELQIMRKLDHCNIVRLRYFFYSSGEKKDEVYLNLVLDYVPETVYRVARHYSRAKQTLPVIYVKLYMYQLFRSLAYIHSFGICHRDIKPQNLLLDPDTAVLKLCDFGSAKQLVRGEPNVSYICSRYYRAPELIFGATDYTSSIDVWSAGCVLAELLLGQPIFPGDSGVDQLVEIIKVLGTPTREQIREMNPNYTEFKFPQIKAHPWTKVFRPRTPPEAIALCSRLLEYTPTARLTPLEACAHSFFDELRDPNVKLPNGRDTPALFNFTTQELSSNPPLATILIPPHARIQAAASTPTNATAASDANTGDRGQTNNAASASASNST

According to US20080152589A1, “Diagnostics and Therapeutics of Neurological Disease” (priority 2006, published 2008):

Molecular target: GSK-3β (endogenous, HEK293 and SK-N-MC cells) (human) (UniProt P49841)
Assay: cell-based or functional assay

Substance: 4 repeat Tau (full-length Tau protein with exon 10 sequences) (from UniProt P10636 1-441)
- decrease in total β-catenin levels (Western blot) after transient over-expression of Tau: 1.3 fold and 1.4 fold

“And” between values parts separate entries of the source, which are not always exact repeats. Equal entries are not always repeated.
